From patent US20250326791A1

Experiments:
µ opioid receptor (MOR) = test: protein binding radioassay
δ opioid receptor (DOR) = test: protein binding radioassay

Substance: D-Ala-D-Leu enkephalin (DADLE) (peptide)
- Kd (µ opioid receptor (MOR)): 9 nM
- Kd (δ opioid receptor (DOR)): 8 nM
